This series deals with LLC-PK1 cells. Kind of series: Assay for determination of apparent permeability (Papp), bi-directional transport. The note with it: 1 μM test compound, t=3 h, average of A to B and B to A.

Consider `CN(C)C1=N[C@@H]2[C@@H](O)[C@H](O)[C@@H](CO)O[C@@H]2S1`, for which the “Papp LLC-PK1 cells (10^−6 cm/s)” value is recorded as <1.0 10^−6 cm/s.
In the case of `CCNC1=N[C@@H]2[C@@H](O)[C@H](O)[C@@H](CO)O[C@@H]2S1`, the “Papp LLC-PK1 cells (10^−6 cm/s)” value is recorded as <1.0 10^−6 cm/s.

The values are drawn from patent publication US9409924B2, “Selective glycosidase inhibitors and uses thereof” (Alectos Therapeutics Inc., priority 2011, dated 2016).
